## Measured affinities in a library of Ab-14 light chain variants

From the AlphaSeq antibody data of Engelhart et al. 2022 (doi:10.1038/s41597-022-01779-4), copy in the FLAb collection.

All variants were tested on one target, the spike HR2 peptide PDVDLGDISGINAS (SARS-CoV-2).

Ab-14 is the parent antibody, in scFv form: VH, then a 15-residue (Gly4Ser)3 linker, then VL. The heavy chain is unchanged in all variants.
VH: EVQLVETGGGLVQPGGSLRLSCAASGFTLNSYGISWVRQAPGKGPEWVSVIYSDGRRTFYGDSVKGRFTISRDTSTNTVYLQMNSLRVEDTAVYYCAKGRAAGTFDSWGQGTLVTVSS
VL: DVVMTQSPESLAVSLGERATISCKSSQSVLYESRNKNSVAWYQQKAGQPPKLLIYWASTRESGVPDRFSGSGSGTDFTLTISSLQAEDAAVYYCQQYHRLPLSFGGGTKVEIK

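Phage display of a naive human antibody library on the peptide gave the parent. The library (AAYL50) carries one to three amino acid substitutions per variant, with no insertions or deletions. AlphaSeq pools MATa yeast showing the antibodies with MATalpha yeast showing the peptide. The frequency of each diploid, read from paired DNA barcodes, reflects how well the two displayed proteins bind. A regression on co-assayed BCL2-family reference pairs converts the normalised counts of each replicate to an apparent Kd. The assay was run in three technical replicates.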

The parent's light chain CDRs are KSSQSVLYESRNKNSVA, WASTRES, QQYHRLPLS; each variant's own CDRs replace them letter for letter. Values are log10 of the apparent Kd in nM; lower means stronger binding. Averages over replicates are reported, and they cover detected replicates only. A pair that was not seen in that replicate is written "ND"; this usually means weak binding, but a binder can also be missed. As a blank, each scFv also met three strains without target: over library AAYL50, 18% of these pairings were detected, typically at 4.19 and seldom below 2.99. Also given: how often the same scFv was detected with the empty control strains, with their mean in brackets.

| CDR-L1 | CDR-L2 | CDR-L3 | log10 Kd (nM) by replicate | mean, log10 nM | signal with controls |
|---|---|---|---|---|---|
| KSSQSVLYESRNKFSVA | WASTRES | QQSHRLYLS | ND ND ND | ND | 0/9 |
| KSSQSVLYESRNKNSVA | AASTREI | QQYHRLPLS | 2.41 ND ND | 2.41 | 2/9 (2.81) |
| KSSQSVLYESRNLNSVA | WASTRES | QQKHRLPLV | ND ND ND | ND | 0/9 |
| KSSQSVLYESRNKNDVA | WTSTRES | QQYCRLPLS | 4.88 2.68 ND | 3.78 | 1/9 (4.52) |
| KSSQSVLYESRNKNSVA | WPSTREL | QQYHRLPGS | ND ND ND | ND | 2/9 (4.18) |
| KSSQSCLYESRNKNSVA | WASTRES | QQYHRLPNC | ND ND ND | ND | 3/9 (3.83) |
| KSSQTVLYESRNKNSVA | WASTPEH | QQYHRLPLS | 2.52 2.35 2.88 | 2.58 | 5/9 (4.42) |
| WSEQCVLYESRNKNSVA | WASTRES | QQYHRLPLS | ND ND 5.23 | 5.23 | 2/9 (4.26) |
| KSSQSTTYESRNKNSDA | WASTRES | QQYHRLPLS | ND ND ND | ND | 2/9 (3.74) |
| KSSQSVKYESRNKNSVA | WASTREQ | QQYLRLPLS | 0.52 0.98 0.76 | 0.75 | 3/9 (3.24) |
| KSGQSVLYESRNKNSVA | WASTRES | QQGHVLPLS | ND ND ND | ND | 0/9 |
| KSSQSVLYESRNKNLVA | WASTRES | QQVHRLPLS | ND ND ND | ND | 1/9 (2.78) |
| KSSQSVLYESRNKASVA | WASARES | QWYHRLPLS | ND 3.74 ND | 3.74 | 3/9 (3.72) |
| KLSQSVLYESRNKNSVA | WASTRNS | QQYHRLNLS | ND ND ND | ND | 0/9 |
| KSSQSVLYNSRLKNSVA | WARTRES | QQYHRLPLS | 2.86 3.63 ND | 3.24 | 0/9 |
| HSSQSVLYRSRNKNSVA | WASTRES | QQYHRLPLS | 2.16 2.67 2.98 | 2.60 | 0/9 |
| SSKQSVLYESRNKNNVA | WASTRES | QQYHRLPLS | 0.55 0.86 0.72 | 0.71 | 1/9 (5.37) |
| KSSQSVLYESQNKWSVA | WASTREV | QQYHRLPLS | 0.42 0.72 0.70 | 0.61 | 4/9 (4.74) |
| KSSNSHLYESRNKNSAA | WASTRES | QQYHRLPLS | ND ND ND | ND | 1/9 (4.13) |
| HSSQSVTYESRNKNSVA | WASTRES | MQYHRLPLS | 1.96 1.56 1.70 | 1.74 | 0/9 |
| KSSQSVLYESRNNDSVA | WASTRES | QQYHRLPLF | 2.54 1.79 2.03 | 2.12 | 5/9 (4.45) |
| KSSTSVLYGSRNKNSAA | WASTRES | QQYHRLPLS | ND ND ND | ND | 0/9 |
| KSSQSMLYESRNKNSVA | WASTRWS | QQYHRNPLS | 1.30 1.33 1.74 | 1.46 | 0/9 |
| KSSQSVLYESRNKNSVA | WYSTRFS | QQYHLLPLS | ND ND ND | ND | 1/9 (4.41) |
| KSSQGVLYESRNKQSVA | WASTGES | QQYHRLPLS | ND ND ND | ND | 2/9 (3.91) |
| KSSQPVLYESRNKNSVA | WASTREF | QQYWRLPLS | 0.84 0.87 1.03 | 0.92 | 1/9 (3.85) |
| KSSQSILYESRNKNSVA | WASTRES | QQYHRNPMS | ND ND ND | ND | 0/9 |
| KSSQSVLYCSRSKNSVA | WASTYES | QQYHRLPLS | 4.96 ND 4.69 | 4.82 | 6/9 (4.28) |
| KSFQSTLYESRNKNSVA | DASTRES | QQYHRLPLS | 0.27 0.40 0.23 | 0.30 | 2/9 (3.35) |
| KSSQSVLDESRNKNSVA | WASTRKS | QQYHRLPLS | 2.12 1.99 1.60 | 1.90 | 3/9 (3.36) |
| KSSQSVLYESRNKNSVA | RASTQES | QQNHRLPLS | ND 4.58 ND | 4.58 | 1/9 (2.08) |
| KSSQFVCYESRNKNSVA | WASTRES | QQYHRLPLK | 3.64 3.45 3.82 | 3.64 | 4/9 (4.57) |
| KSSQSILYESRNKNSVA | WFSTRSS | QQYHRLPLS | ND ND ND | ND | 0/9 |
| KSSLSVLYESRNKNSVA | WASLTES | QQYHRLPLS | 3.52 ND 3.97 | 3.75 | 2/9 (4.30) |
| KSSQYVLYVSRNKNSVA | WASTRES | QQYNRLPLS | ND ND ND | ND | 0/9 |
| KSSQSVLYESRNKNSVA | WASDFPS | QQYHRLPLS | ND ND 4.08 | 4.08 | 3/9 (3.74) |
| KSSQSVMPESRGKNSVA | WASTRES | QQYHRLPLS | 0.77 0.94 0.82 | 0.84 | 4/9 (5.27) |
| KSSQSVMYESRNKNSVA | WASTRES | QQYPRAPLS | 2.50 2.70 3.27 | 2.82 | 1/9 (4.33) |
| KSSQSVGYESRNKNCVA | WASTRES | HQYHRLPLS | ND ND ND | ND | 0/9 |
| KSSQSVLYESRNKNSVA | DASTRES | SQYHALPLS | ND ND ND | ND | 0/9 |
| KSSQSKLVEFRNKNSVA | WASTRES | QQYHRLPLS | 3.30 ND 3.90 | 3.60 | 0/9 |
| VSSQSVLYESRNKNSVA | WASTRES | QQYYRLPSS | ND ND ND | ND | 1/9 (3.36) |
| KSSQSVLYESRNKNSVE | WASTRER | QQYHMLPLS | 4.67 ND ND | 4.67 | 0/9 |
| KSRQSVLYESRNKNSVA | WASTRES | QQYHALPLS | 1.29 1.26 1.52 | 1.36 | 0/9 |
| KSSQSVLYESRNKNSVA | WASKCNS | QQYHRLPLS | ND ND ND | ND | 0/9 |
| KSSQSVLYESRNKNIVA | WTSTRGS | QQYHRLPLS | ND ND ND | ND | 0/9 |
| KSSQSVLYESRNKTSVA | WIMTRES | QQYHRLPLS | ND ND 4.02 | 4.02 | 2/9 (3.17) |
| KSSQSVLYESRNKNSVA | WASCRES | QQYHRLPAS | 4.40 ND ND | 4.40 | 2/9 (4.75) |
| KSSQSVLYESRNKKSQA | WASTRES | QQYHHLPLS | ND ND ND | ND | 0/9 |
| KSSQSVLYESRNKNSVA | WASTRES | QQYHHKPLP | ND ND ND | ND | 0/9 |
| KSSQSVLYESVNKNSVA | WASTREK | QLYHRLPLS | 0.57 0.76 0.84 | 0.73 | 2/9 (4.78) |
| KSSQYVLYESRNVNSVA | WASTRES | QQYCRLPLS | ND ND ND | ND | 1/9 (4.85) |

Extract of 8 entries:

CDR-L1,CDR-L2,CDR-L3,log10 Kd (nM) by replicate,"mean, log10 nM",signal with controls
KSSQSCLYESRNKNSVA,WASTRES,QQYHRLPNC,ND ND ND,ND,3/9 (3.83)
HSSQSVTYESRNKNSVA,WASTRES,MQYHRLPLS,1.96 1.56 1.70,1.74,0/9
KSSQFVCYESRNKNSVA,WASTRES,QQYHRLPLK,3.64 3.45 3.82,3.64,4/9 (4.57)
KSSQSILYESRNKNSVA,WFSTRSS,QQYHRLPLS,ND ND ND,ND,0/9
KSSQSVLYESRNKNLVA,WASTRES,QQVHRLPLS,ND ND ND,ND,1/9 (2.78)
KSSQSVLYESRNKNSVE,WASTRER,QQYHMLPLS,4.67 ND ND,4.67,0/9
KSSQSVLYESRNKNSVA,WASTRES,QQYHHKPLP,ND ND ND,ND,0/9
KSSQSVMPESRGKNSVA,WASTRES,QQYHRLPLS,0.77 0.94 0.82,0.84,4/9 (5.27)

For reference, the parent read 0.65 as the reference entry and 1.68 as a member of this library.